Sequences of proteins named here, by UniProt entry; tags and fusion partners are left off.
UniProt Q96RJ0, whole entry: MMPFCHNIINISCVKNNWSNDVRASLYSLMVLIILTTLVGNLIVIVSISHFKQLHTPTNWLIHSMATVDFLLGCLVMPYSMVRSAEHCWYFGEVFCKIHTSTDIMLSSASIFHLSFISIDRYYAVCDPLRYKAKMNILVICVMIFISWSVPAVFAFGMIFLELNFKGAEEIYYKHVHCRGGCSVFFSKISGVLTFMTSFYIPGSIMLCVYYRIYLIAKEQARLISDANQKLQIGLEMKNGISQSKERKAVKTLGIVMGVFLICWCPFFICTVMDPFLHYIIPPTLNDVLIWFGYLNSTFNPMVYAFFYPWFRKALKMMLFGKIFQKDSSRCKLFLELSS

The assay deals with TAAR1 (Homo sapiens, UniProt Q96RJ0). The assay can be described thus: In vitro TAAR1 functional activity (cAMP Hunter CHO-K1 TAAR1 Gs cell line, HitHunter cAMP assay). To be noted: chemiluminescence cAMP readout. For orientation: Changes in cAMP serve as a functional read-out for many G protein-coupled receptors.
Regarding `CC(=O)c1ccsc1C1CNCCO1` (single isomer, unassigned), the EC50 (usually the concentration at which the effect is half-maximal) was over 10 µM.

`Fc1ccsc1C1CNCCO1` (single isomer, unassigned) [Compound 7-a] gave a concentration for a half-maximal effect (EC50) of 4.14 µM.

`Fc1ccsc1C1CNCCO1` (single isomer, unassigned) [Compound 7-b] registered an EC50 of 0.344 µM.
